The text below walks through data of ChEMBL document CHEMBL6087392, “Discovery of ZG-2305, an Orally Bioavailable Factor Inhibiting HIF Inhibitor for the Treatment of Obesity and Fatty Liver Disease” (J Med Chem, 2025).

Activity calls are given as the source filed them. The rule behind the calls is not given here.

Format in all cases: functional, organism-based
Holding throughout (conditions): time 30.0 day

Experiment [1] relates to Mus musculus. Description: Anti-obesity activity in male ob/ob mouse model assessed as reduction in weight gain at 20 mg/kg, IG administered every other day for 30 days.
Experiment [2] deals with Mus musculus. Description: Anti-obesity activity in male ob/ob mouse model assessed as reduction in food uptake at 20 mg/kg, IG administered every other day for 30 days.
In experiment [3] the test system is Mus musculus. Description: Anti-obesity activity in male ob/ob mouse model assessed as reduction in reduction in liver weight at 20 mg/kg, IG administered every other day for 30 days.
Experiment [4] has as its system Mus musculus. The experiment in a line: Anti-obesity activity in male ob/ob mouse model assessed as reduction in reduction in inguinal white adipose tissue at 20 mg/kg, IG administered every other day for 30 days.
Experiment [5] deals with Mus musculus. The experiment in a line: Anti-obesity activity in male ob/ob mouse model assessed as reduction in reduction in epididymal white adipose tissue at 20 mg/kg, IG administered every other day for 30 days.
The subject of experiment [6] is Mus musculus. The experiment in a line: Anti-obesity activity in male ob/ob mouse model assessed as reduction in reduction in brown adipose tissue at 20 mg/kg, IG administered every other day for 30 days.
For experiment [7], the system named is Mus musculus. The experiment in a line: Anti-obesity activity in male ob/ob mouse model assessed as reduction in body weight at 30 nmol/kg, ip administered once a week for 30 days.
The test system of experiment [8] is Mus musculus. The experiment in a line: Anti-obesity activity in male ob/ob mouse model assessed as reduction in reduction in food uptake at 30 nmol/kg, ip administered once a week for 30 days.
In experiment [9] the test system is Mus musculus. The experiment in a line: Anti-obesity activity in male ob/ob mouse model assessed as reduction in reduction in liver weight at 30 nmol/kg, ip administered once a week for 30 days.
Experiment [10] concerns Mus musculus. Description: Anti-obesity activity in male ob/ob mouse model assessed as reduction in reduction in inguinal white adipose tissue at 30 nmol/kg, ip administered once a week for 30 days.
Experiment [11] has as its system Mus musculus. The experiment in a line: Anti-obesity activity in male ob/ob mouse model assessed as reduction in reduction in epididymal white adipose tissue at 30 nmol/kg, ip administered once a week for 30 days.
The test system of experiment [12] is Mus musculus. The experiment in a line: Anti-obesity activity in male ob/ob mouse model assessed as reduction in reduction in brown adipose tissue at 30 nmol/kg, ip administered once a week for 30 days.

For the compound `CCCCCCCCCCC[C@@H](C[C@@H]1OC(=O)[C@H]1CCCCCC)OC(=O)[C@H](CC(C)C)NC=O`, the result with Mus musculus [1], with Mus musculus [2], in the experiment on Mus musculus [3] and in the experiment with Mus musculus [4] was Active. Further, the result in the experiment with Mus musculus [5] and in the experiment with Mus musculus [6] was inactive.

On to `CC[C@H](C)[C@H](NC(=O)[C@H](Cc1ccccc1)NC(=O)[C@H](CCC(=O)O)NC(=O)[C@@H](CCCCNC(=O)COCCOCCNC(=O)COCCOCCNC(=O)CCC(NC(=O)CCCCCCCCCCCCCCCCC(=O)O)C(=O)O)NC(=O)[C@H](C)NC(=O)[C@H](C)NC(=O)[C@H](CCC(N)=O)NC(=O)CNC(=O)[C@H](CCC(=O)O)NC(=O)[C@H](CC(C)C)NC(=O)[C@H](Cc1ccc(O)cc1)NC(=O)[C@H](CO)NC(=O)[C@H](CO)NC(=O)[C@@H](NC(=O)[C@H](CC(=O)O)NC(=O)[C@H](CO)NC(=O)[C@@H](NC(=O)[C@H](Cc1ccccc1)NC(=O)[C@@H](NC(=O)CNC(=O)[C@H](CCC(=O)O)NC(=O)C(C)(C)NC(=O)[C@@H](N)Cc1cnc[nH]1)[C@@H](C)O)[C@@H](C)O)C(C)C)C(=O)N[C@@H](C)C(=O)N[C@@H](Cc1c[nH]c2ccccc12)C(=O)N[C@@H](CC(C)C)C(=O)N[C@H](C(=O)N[C@@H](CCCNC(=N)N)C(=O)NCC(=O)N[C@@H](CCCNC(=N)N)C(=O)NCC(=O)O)C(C)C` (some centres not stated), for which the result in the experiment with Mus musculus [7], in the experiment with Mus musculus [11] and in the experiment on Mus musculus [12] was inactive. Further, the outcome with Mus musculus [8], in the experiment with Mus musculus [9] and with Mus musculus [10] was Active.
